Measured values reported in US9243020B2, “Selective glycosidase inhibitors and uses thereof” (priority 2010, dated 2016).

Chains of the proteins cited; added tags and fusions are not shown. Lines headed by an entry give the natural chain unless they say otherwise; changes in a name come on top.
UniProt O60502: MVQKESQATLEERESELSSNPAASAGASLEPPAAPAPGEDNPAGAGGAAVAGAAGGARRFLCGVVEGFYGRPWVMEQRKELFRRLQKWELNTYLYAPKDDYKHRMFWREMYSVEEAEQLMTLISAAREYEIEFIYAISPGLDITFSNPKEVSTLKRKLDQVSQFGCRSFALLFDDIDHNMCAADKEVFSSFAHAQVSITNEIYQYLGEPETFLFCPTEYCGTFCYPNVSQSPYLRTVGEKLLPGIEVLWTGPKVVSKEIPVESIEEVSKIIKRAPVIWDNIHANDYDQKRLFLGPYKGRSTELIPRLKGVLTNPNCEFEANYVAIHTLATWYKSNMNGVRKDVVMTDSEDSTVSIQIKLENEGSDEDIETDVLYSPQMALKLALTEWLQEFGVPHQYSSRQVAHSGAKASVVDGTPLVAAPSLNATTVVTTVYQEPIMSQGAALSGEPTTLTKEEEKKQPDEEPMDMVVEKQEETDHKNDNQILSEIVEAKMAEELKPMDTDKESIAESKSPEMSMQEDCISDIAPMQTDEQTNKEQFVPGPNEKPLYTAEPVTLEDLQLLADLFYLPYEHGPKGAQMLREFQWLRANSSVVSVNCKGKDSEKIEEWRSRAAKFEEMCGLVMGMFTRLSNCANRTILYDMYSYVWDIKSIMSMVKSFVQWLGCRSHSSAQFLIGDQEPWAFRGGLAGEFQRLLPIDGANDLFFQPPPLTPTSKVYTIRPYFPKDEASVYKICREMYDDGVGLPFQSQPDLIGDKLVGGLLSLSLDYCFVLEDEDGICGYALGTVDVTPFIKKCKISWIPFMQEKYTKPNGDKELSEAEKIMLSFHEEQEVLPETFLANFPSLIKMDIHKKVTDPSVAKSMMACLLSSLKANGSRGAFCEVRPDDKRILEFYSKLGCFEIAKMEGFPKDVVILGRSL

Target: human O-GlcNAcase (Homo sapiens (Human), UniProt O60502)
Experiment: Assay for determination of Ki values for inhibition of O-GlcNAcase activity (fluorescence-based)
Format: biochemical
Settings: purified human O-GlcNAcase 0.7 nM, 2 mM 4-methylumbelliferyl N-acetyl-β-D-glucosaminide, pH 7.0, Cheng-Prusoff; read-out: Fluorescence-based hOGA Ki

`CCNC1=N[C@@H]2C[C@H](O)[C@@H](CO)O[C@@H]2S1` [Example 2, (3aR,5R,6S,7aR)-2-(ethylamino)-5-(hydroxymethyl)-5,6,7,7a-tetrahydro-3aH-pyrano[3,2-d]thiazol-6-ol] was tested, and the Ki was 44 nM.
